This is an account of results in patent US20230390282A1, “TREATMENT OF EYE CONDITIONS” (The University of Birmingham, priority 2020, published 2023).

“Also recorded” adds a separate entry of the source. A value given as a limit tells only on which side of the number the result lay.

Data set [1] concerns pChk2 T68, pChk2 T383, pChk1. Briefly: Western blot of pChk2/pChk1 in L4/L5 DRG after DC injury. Type of data set: in vivo, rat. Conditions: 28 days/4 weeks after injury; for Chk2 phosphorylation (pChk2 T68, pChk2 T383) after DC injury: small molecules intrathecal (BML-277 5 μg, Prexasertib 3 μg), shRNA plasmid intra-DRG with PEI. The protocol:
(§1) DC crush injury model. Rats were injected subcutaneously with 0.05 ml Buprenorphine to provide analgesia prior to surgery and anaesthetised using 5% of Isoflurane in 1.8 ml/l of O2 with body temperature and heart rate monitored throughout surgery.
(§2) Chk2 inhibition studies in the DC crush injury model. […] Chk1i (LY2603618) was used at equimolar concentrations for each experiment. Rats were killed in a rising concentration of CO2 at either 28 d for immunohistochemistry and western blot analyses or 6 weeks for electrophysiology and functional tests.
(§3) Sham treated animals (partial laminectomy but no DC injury) were also included as additional controls. At 4 weeks after DC injury and treatment, ipsilateral L4/L5 DRG pairs were harvested, total RNA extracted using Trizol reagent as described above and knock down of Chk1 and Chk2 mRNA knockdown using quantitative qRT-PCR, as described above. Contralateral L4/L5 DRG pairs were treated the same as above and used as controls. […] This included western blot to determine pChk1 and pChk2 levels after shChk2 treatment. For these experiments, animals were randomly assigned to DC+shNull and DC+shChk2 groups each comprising n=6 rats and repeated on 3 independent occasions (total n=18 rats/group). […] Animals were allowed to survive for 6 weeks with functional testing (tape sensing+removal and ladder crossing tests) performed pre- and post-DC injury as described below. Electrophysiology was performed on the same set of animals at 6 weeks after DC injury and treatment as described below.
(§4) Protein extraction and western blot analysis.

The subject of data set [2] is dorsal column (DC) axons. Description: T8 dorsal column (DC) crush model of spinal cord injury: axon regeneration, electrophysiology, sensory and locomotor tests. Format: in vivo, rat. Particulars: for negative CAP amplitudes: all stimulation intensities; for time after treatment at which mean tape sensing/removal times are restored to normal: sensory function after DC injury. The protocol: as §1, §2, §3
Quantification of DC axon regeneration. […] Briefly, the number of intersections of GAP43^+ fibers were counted through a dorsoventral orientated line in reconstructed serial parasagittal sections of the cord (serial 50μm-thick sections ˜70-80 sections/animal; n=10 rats/treatment)). Axon number was then represented as % of fibers counted at 4 mm above the lesion, where the DC was intact.
Electrophysiology. […] Briefly, with the experimenter masked to the treatment conditions, silver wire electrodes applied single-current pulses (0.05 ms) through a stimulus isolation unit in increments (0.2, 0.3, 0.6, 0.8, and 1.2 mA) at L1-L2 and compound action potentials (CAP) were recorded at C4-C5 along the surface of the midline spinal cord. Spike 2 software was then used to calculate CAP amplitudes between the negative deflection after the stimulus artifact and the next peak of the wave. CAP area was calculated by rectifying the negative CAP component (full-wave rectification) and measuring its area. At the different stimulation intensities. […] Representative CAP traces are processed output data from Spike 2 software.
Functional tests. […] Briefly, animals (n=6 rats/group, 3 independent repeats; total n=18/group) received training to master traversing the horizontal ladder for 1w before functional testing. Baseline parameters for all functional tests were established 2-3 d before injury. Animals were then tested 2 d after DC lesion+treatment and then weekly for 6 weeks. Experiments were performed by 2 observers (treatment conditions were masked) in the same order, the same time of day and each test performed for 3 individual trials. Horizontal ladder test: This tests the animals locomotor function and is performed on a 0.9-meter-long horizontal ladder with a diameter of 15.5 cm and randomly adjusted rungs with variable gaps of 3.5-5.0 cm. The total number of steps taken to cross the ladder and the left and right rear paw slips being were recorded and the mean error rate was then calculated by dividing the number of slips by the total number of steps taken.

Data set [3] concerns Chk2 phosphorylation (Thr68, Thr383). Particulars: DRGN cultures, western blot. The protocol: (§5) Rat DRGN and retinal cultures. […] Cells were cultured for 4 days in a humidified chamber at 37° C. and 5% CO2 before being subjected to quantitative RT-PCR or immunocytochemistry, as described below.
as §4
On the technique in general: In western blotting, separated proteins are transferred to a membrane and probed.

For data set [4], the system named is dorsal root ganglion neuron (DRGN) cultures. Description: Primary adult rat DRGN cultures: survival and neurite outgrowth. Format: cell-based. Particulars: 4 days in culture. The protocol:
as §5

For data set [5], the system named is RGC.
The subject of data set [6] is RGC. Briefly: Rat retinal cultures: RGC survival and neurite outgrowth. Type of data set: cell-based. Conditions: 4 days. The protocol: as §5
For data set [7], the system named is γH2Ax. Conditions: retina, 30 days after induction of glaucoma.
Where [8] appears, read: compared to all other treatment groups.
The mark [9] stands for this setting: Chk2i: 3 weeks after injury, others over the whole 6 weeks.

As to `NC(=O)c1ccc2[nH]c(-c3ccc(Oc4ccc(Cl)cc4)cc3)nc2c1` [BML-277], in data set [1], the “Chk2 phosphorylation (pChk2 T68, pChk2 T383) after DC injury” value was “optimally suppresses”. In addition, in data set [2] (6 weeks after DC injury), the “mean CAP area at different stimulation intensities” value is “improved significantly” and the “negative CAP amplitudes” value is reported as “restored”. The “time after treatment at which mean tape sensing/removal times are restored to normal” value in data set [2] came to 4 weeks.
On to `COc1cc2nc(-c3cc(F)ccc3O)nc(N[C@@H]3CNC[C@H]3C(C)(C)O)c2cc1OC` [Chk2i], for which the “Chk2 phosphorylation (Thr68, Thr383)” value in data set [3] is “suppressed”. Moreover, in data set [4], the “% DRGN with neurites” value worked out at 82%. The molecule further yielded a DRGN survival in data set [4] (NBA-treated controls 40%) of 90%. This molecule also yielded a mean neurite length in data set [4] (controls 12 μm) of 520 μm. The RGC axon regeneration entry in data set [5] (24 days after ONC) is “significant RGC axon regeneration”. Besides, in data set [5] (rat, in vivo), the RGC survival was greater than 90%. Further, in data set [1], the “Chk1 phosphorylation (pChk1 levels) after DC injury” value is “No changes” and the “Chk2 phosphorylation (pChk2 T68, pChk2 T383) after DC injury” value was “abolished”. In data set [6] (setting [8]), the “% RGC with neurites” value is “enhanced” and the “mean neurite length of RGC” value is reported as “enhanced”. Besides, in data set [6] (compared to control NBA, CNTF or Chk1i), the “RGC survival in culture” value was “significantly enhanced”. Also, the “levels of γH2Ax” value in data set [7] is recorded as “attenuates”. Moreover, in data set [2] (6 weeks after DC injury), the “CAP area improvement compared to the vehicle or Chk1i treatments” value was greater than 90%; the “CAP area, within x% of that observed for sham-treated control groups” value is no more than 20%; the “mean CAP area at different stimulation intensities” value is reported as “restored”; the “negative CAP amplitudes” value was “increased; also recorded: restored”. In data set [2] (setting [9]), the “ladder crossing test (locomotor function) outcome” value is “indistinguishable from sham-treated animals” and the “tape sensing/removal test (sensory function) outcome” value is “indistinguishable from sham-treated animals”. Further, in data set [2] (GAP43+ axons, daily intrathecal injections), the “axons regenerating 6 mm rostral to the lesion site” value worked out at 23.7%. In data set [2] (after 2 days of treatment), the “ladder crossing test performance compared to vehicle or Chk1i” value is “significant improvements” and the “tape sensing/removal test performance compared to vehicle or Chk1i” value is given as “significant improvements”. Moreover, the “time after treatment at which mean tape sensing/removal times are restored to normal” value in data set [2] came out at 3 weeks.
On to `COc1cccc(OCCCN)c1-c1cc(Nc2cnc(C#N)cn2)n[nH]1` [Prexasertib], for which, in data set [2] (6 weeks after DC injury), the “mean CAP area at different stimulation intensities” value is given as “improved significantly” and the “negative CAP amplitudes” value is recorded as “restored”. For the same molecule, in data set [2], the “time after treatment at which mean tape sensing/removal times are restored to normal” value is given as 3 weeks.
